Experimental data as given in patent US20030152646A1, “Method of treating conditions caused by activated microglia” (priority 2001, published 2003).
Only a part of the results on these compounds is given; other tests are left out.

System: microglia-neuron co-cultures
Assay: Neuron survival in co-cultures treated with the NO donor SNP
Settings: SNP 300 μM, 48 hr

Question: sodium nitroprusside was tested. Which neurons killed did it give?
Answer: less than 50%
